In PMC9308409 (Communications Biology, 2022):

What was measured:
[1] = target: human TPC1 L11A/I12A (TPC1^PM) (Homo sapiens, UniProt Q9ULQ1, I12A/L11A); test: cell-based
Method: (§1) After 24 h of transfection, human TPC1^PM or TPC2^PM channel currents were acquired at room temperature using an EPC-10 amplifier and PatchMaster software (HEKA) or a MultiClamp 700B amplifier and pCLAMP software (Axon Instruments). […] Patch pipettes were polished with a resistance of 2–3 MΩ for recording. Similarly, for whole-cell recording to allow inhibitor application on the extracellular side, the K^+-based solution was used as the pipette solution, and the Na^+-based solution was used in the bath.

[2] = target: human TPC1^PM F692H mutant (Homo sapiens, UniProt Q9ULQ1, F692H/I12A/L11A); test: cell-based
Method: as §1

[3] = TPC1, read-out: Normlized inhibition, individual cells

SMILES: Nc1ccc(C(=O)Nc2cccc(-c3nc(N4CCOCC4)c4oc5ncccc5c4n3)c2)cn1 [YM201636]
- IC50 [1]: > 20000 nM
- inhibition at 5 µM [1, 3]: 26.1%
- inhibition at 21.39 µM [1, 3]: 33.5%
- IC50 [2]: ~2300 nM
- inhibition at 1 µM [2, 3]: 40.8%
- inhibition at 5 µM [2, 3]: 58.4%
- inhibition at 21.39 µM [2, 3]: 68.9%
